Values of other authors in patent US20240368262A1, “A MYOSTATIN PATHWAY INHIBITOR IN COMBINATION WITH A GLP-1 PATHWAY ACTIVATOR FOR USE IN TREATING METABOLIC DISORDERS” (SCHOLAR ROCK, INC., priority 2021, published 2024).

Sequences of proteins named here, by UniProt entry; tags and fusion partners are left off. Residues count along the entry.
UniProt Q13705, 19-512: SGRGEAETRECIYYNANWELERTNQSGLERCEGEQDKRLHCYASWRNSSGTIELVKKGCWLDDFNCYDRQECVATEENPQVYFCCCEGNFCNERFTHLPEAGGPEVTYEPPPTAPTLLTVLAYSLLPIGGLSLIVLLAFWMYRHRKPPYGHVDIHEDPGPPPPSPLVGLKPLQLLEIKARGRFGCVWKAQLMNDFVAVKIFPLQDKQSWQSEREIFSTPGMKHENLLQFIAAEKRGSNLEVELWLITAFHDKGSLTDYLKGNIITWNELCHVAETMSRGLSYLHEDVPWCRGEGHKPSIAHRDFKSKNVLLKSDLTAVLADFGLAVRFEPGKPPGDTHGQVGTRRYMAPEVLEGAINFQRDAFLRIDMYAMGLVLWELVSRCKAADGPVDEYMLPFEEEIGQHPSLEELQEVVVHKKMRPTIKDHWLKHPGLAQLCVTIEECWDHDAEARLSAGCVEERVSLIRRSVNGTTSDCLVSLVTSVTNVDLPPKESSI

Target: T1, Activin Receptor type IIB (Homo sapiens, UniProt Q13705)
T1 construct: host or cells: human patients (clinical studies)
Settings: cited from earlier work

bimagrumab: antibody that binds Activin Receptor type IIB, thereby interfering with ligand binding
serious adverse events (bimagrumab-treated patients over placebo): increased serious adverse events
weight, adiposity and lean mass (clinical, improving weight, reducing adiposity and preserving lean mass): clinically beneficial effects
